Test results taken from ChEMBL document CHEMBL1142710, “3D-QSAR comparative molecular field analysis on opioid receptor antagonists: pooling data from different studies” (J Med Chem, 2005).

The chains behind the UniProt entries cited, without tags or fusion partners.
UniProt P33533, whole entry, looked up: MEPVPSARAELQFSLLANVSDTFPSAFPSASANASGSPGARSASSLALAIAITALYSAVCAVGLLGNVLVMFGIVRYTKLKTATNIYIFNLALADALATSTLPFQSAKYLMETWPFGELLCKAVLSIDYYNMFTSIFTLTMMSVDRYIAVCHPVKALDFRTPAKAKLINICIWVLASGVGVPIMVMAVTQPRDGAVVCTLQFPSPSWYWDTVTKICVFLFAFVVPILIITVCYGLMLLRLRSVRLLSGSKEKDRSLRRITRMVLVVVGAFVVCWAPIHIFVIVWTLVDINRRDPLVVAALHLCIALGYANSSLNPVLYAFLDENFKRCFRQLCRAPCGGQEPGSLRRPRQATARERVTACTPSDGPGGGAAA
UniProt P33535, whole entry, looked up: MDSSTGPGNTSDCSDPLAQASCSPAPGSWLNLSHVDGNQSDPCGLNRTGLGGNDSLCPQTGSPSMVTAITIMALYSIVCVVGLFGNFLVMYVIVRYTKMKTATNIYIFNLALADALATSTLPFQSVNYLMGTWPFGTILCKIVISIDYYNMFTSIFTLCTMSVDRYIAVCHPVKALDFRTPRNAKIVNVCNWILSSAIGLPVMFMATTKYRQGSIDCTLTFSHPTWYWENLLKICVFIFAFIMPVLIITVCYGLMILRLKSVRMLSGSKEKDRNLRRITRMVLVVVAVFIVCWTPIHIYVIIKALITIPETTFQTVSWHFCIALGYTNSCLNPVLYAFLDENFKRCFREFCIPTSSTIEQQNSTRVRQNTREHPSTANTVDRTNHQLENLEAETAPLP

Assays:
[1] = Ratio of affinity against Opioid receptor kappa 1 to that of Opioid receptor delta 1 expressed as selectivity ratio
[2] = molecular target: Opioid receptors; mu & delta (Rattus norvegicus) (UniProt P33533+P33535); assay: Ratio of affinity against Opioid receptor mu 1 to that of Opioid receptor delta 1 expressed as selectivity ratio; assay type: protein assay

Question: Which Selectivity ratio [1] does the source give for `Oc1ccc2c3c1O[C@H]1c4[nH]c5ccccc5c4C[C@@]4(O)[C@@H](C2)N(CC2CC2)CC[C@]314` [NALTRINDOLE] here?
Answer: 138

Question: And the Selectivity ratio [2]?
Answer: 120
